{
  "source": "patent US20260001946A1",
  "about": "“TREATMENT OF A DISEASE OR CONDITION IN A TISSUE ORIGINATING FROM THE ENDODERM” (BT Bidco, Inc., priority 2018, published 2026)",
  "conditions": "mouse, in vivo",
  "note": "Where a name gives a salt, the structure may show the parent alone.",
  "data": [
    {"smiles": "C[C@@H]1CCN(C(=O)CC#N)C[C@@H]1N(C)c1ncnc2[nH]ccc12", "note": "[tofacitinib citrate]", "values": [
      {"measurement": "blood exposure", "value": "limited blood exposure"}
    ]}
  ]
}
